10 compounds from PubChem BioAssay AID1645883 (National Center for Advancing Translational Sciences (NCATS), 2021) can be followed below.

Amino acid sequences for entries named in this document (tags omitted).
UniProt O95398, whole entry: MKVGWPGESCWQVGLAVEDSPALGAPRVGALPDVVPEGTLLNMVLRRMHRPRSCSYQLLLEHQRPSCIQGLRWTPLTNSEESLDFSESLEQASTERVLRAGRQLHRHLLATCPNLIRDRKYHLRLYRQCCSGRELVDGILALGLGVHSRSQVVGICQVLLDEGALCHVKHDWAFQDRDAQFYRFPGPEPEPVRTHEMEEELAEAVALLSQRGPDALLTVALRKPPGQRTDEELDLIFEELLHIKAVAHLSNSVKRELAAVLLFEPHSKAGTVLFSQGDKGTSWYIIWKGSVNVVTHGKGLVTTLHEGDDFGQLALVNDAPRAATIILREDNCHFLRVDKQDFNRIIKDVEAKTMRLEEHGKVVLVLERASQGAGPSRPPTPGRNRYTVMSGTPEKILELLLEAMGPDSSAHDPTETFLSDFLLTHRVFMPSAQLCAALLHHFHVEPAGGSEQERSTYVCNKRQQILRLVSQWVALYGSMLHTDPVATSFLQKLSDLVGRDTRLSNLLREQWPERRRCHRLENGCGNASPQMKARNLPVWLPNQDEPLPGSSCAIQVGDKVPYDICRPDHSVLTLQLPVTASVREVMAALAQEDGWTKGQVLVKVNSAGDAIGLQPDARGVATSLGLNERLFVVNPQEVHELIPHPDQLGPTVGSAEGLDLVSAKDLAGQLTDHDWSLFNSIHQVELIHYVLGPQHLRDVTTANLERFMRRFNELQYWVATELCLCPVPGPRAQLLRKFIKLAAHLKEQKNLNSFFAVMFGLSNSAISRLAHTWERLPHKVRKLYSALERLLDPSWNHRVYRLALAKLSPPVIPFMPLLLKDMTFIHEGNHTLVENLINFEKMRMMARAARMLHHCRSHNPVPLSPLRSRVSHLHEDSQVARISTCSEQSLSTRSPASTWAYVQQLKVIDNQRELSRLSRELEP

“And” between values parts separate entries of the source, which are not always exact repeats. Equal entries are not always repeated. Only a part is listed here, and it is no random draw. Inconclusive results are not listed. The source made the active and inactive calls. Calls come from the whole dose curve; as a rule, active = well fitted activation curve with a large enough effect; inconclusive = small, poorly fitted or top-dose-only effect; inactive = no such curve, though single readings can be large or run the other way.
% is set by controls: 0 for no effect and ±100 for the full control effect.

In this assay the target is Rap guanine nucleotide exchange factor 3 (Homo sapiens) (UniProt O95398). Briefly: Validation qHTS for agonist of cAMP-regulated guanine nucleotide exchange factor 3 (EPAC1). Note: nearly all actives have a fitted effect of over 70% in size. The note with it: EPAC1 Rap1b BODIPY-GDP exchange, fluorescence; active compounds read high; percent of cAMP control response. From the text:
Assay Provider (PI): Xiaodong Cheng Ph.D.
The University of Texas Medical Branch, […], TX
In multi-cellular eukaryotic organisms, the effects of cAMP are transduced by two ubiquitously-expressed intracellular cAMP receptors, the classic protein kinase A/cAMP-dependent protein kinase (PKA/cAPK) and the more recently discovered exchange protein directly activated by cAMP/cAMP-regulated guanine nucleotide exchange factor (EPAC/cAMP-GEF). Both PKA and EPAC are ubiquitously expressed in all tissues, and an increase in intracellular cAMP levels will lead to the activation of both PKA and EPAC. Therefore, careful dissections of the individual role and relative contribution of EPAC and PKA within the overall cAMP signaling in various model systems are critical for further elucidating the mechanism of cAMP signaling. To date no EPAC-specific antagonists and agonist, as well as isoform-specific agonists have been reported, and developing EPAC-specific pharmacological probes to determine the physiological functions that EPAC play in the overall cAMP-mediated signaling remains a major challenge within the research field. Furthermore, identified regulators of EPAC may lead to new mechanism-based therapeutic strategies specifically targeting the EPAC / cAMP-signaling components as EPAC has been implicated to play important roles in major human pathological conditions such as diabetes, heart disease, and cancer.
This qHTS will be used to screen the Molecular Libraries Small Molecule Repository (MLSMR) as a concentration-titration series using the NCGC unique quantitative screening (qHTS) platform to find activators for EPAC1. In addition, this assay will also be used as a counterscreen for the EPAC2 qHTS. This fluorescent based assay is developed and validated for EPAC1 that measures exchange using EPAC effector Rap1 complex with BODIPY-GDP, a GDP analog with a tethered fluorophores. Activators are identified by monitoring the change in fluorescence signal as the exchanged free BODIPY-GDP has a reduced fluorescence compared to Rap1-bound BODIPY-GDP. Increase in signal (activation) is the desired outcome for the EPAC1 agonist while no activity in this assay is desired for the EPAC2 agonist counterscreen.
[1] de Rooij, J., Zwartkruis, F. J., Verheijen, M. H., Cool, R. H., Nijman, S. M., Wittinghofer, A., and Bos, J.L. (1998) Nature 396, 474-477.
Briefly, three uL of reagents (100 nM EPAC1, 250 nM RAP1B-BODIPY-GDP, 50 uM GDP) were dispensed into a 1536-well Greiner black solid-bottom medium binding assay plate. Controls and test compounds (23 nL) were transferred to the plate via a Kalypsys pin tool equipped with a 1536-pin array. The plates were centrifuged at 1,000 rpm for 15 seconds followed by 5 minute incubation at room temperature. The assay plates were read at 5 minute intervals for 30 minutes in the ViewLux plate reader using 480nm excitation and 540nm emission filters. The results were normalized to the agonist positive control of 6.5 mM cAMP.
A general note: In qHTS, concentration-response curves come from the screen itself.
For `CCOP(=O)(CC)Oc1ccc([N+](=O)[O-])cc1` (stereo not given), the max response was inactive: -57.2%.

On to `Cc1cccc([N+](=O)[O-])c1[N+](=O)[O-]`, for which the max response was inactive: -18.4%.

As to `CCN(CCCl)Cc1ccccc1C`, the max response is inactive: -18.8%.

Turning to `C/C1=C2N=C(/C=C3N=C(/C(C)=C4\[N-][C@@](C)([C@@H]5N=C1[C@](C)(CCC(=O)NC[C@@H](C)OP(=O)([O-])O[C@H]1[C@@H](O)[C@@H](n6cnc7cc(C)c(C)cc76)O[C@@H]1CO)[C@H]5CC(N)=O)[C@@](C)(CC(N)=O)[C@@H]4CCC(N)=O)[C@@](C)(CC(N)=O)[C@@H]\3CCC(N)=O)C(C)(C)[C@@H]/2CCC(N)=O.[C-]#N.[Co+3]`, the max response was inactive: -6.29%.

Take `CC(C)OP(=O)(F)OC(C)C`: the max response is inactive: 0.025%.

As for `O=[N+]([O-])[O-].[NH4+]`, the max response was inactive: 17.3%.

`CN(C)CCS`: the max response is inactive: -15.3%.

`CC(C)N(CCCl)C(C)C`: the max response is inactive: 4.13%.

As to `O=[N+]([O-])OCC(CO[N+](=O)[O-])(CO[N+](=O)[O-])CO[N+](=O)[O-]`, the max response was inactive: -14.4%.

For the compound `O=[N+]([O-])c1cccc([N+](=O)[O-])c1`, the max response is inactive: -20% and inactive: -25.3%.
